The test system of this test is SOD deficient flies. More on the design: species or system Drosophila. As to conditions: in vivo. As for the experimental part: Drosophila males will be collected and keep on fly food for 24 h. Then flies will be transferred to vials containing 3-mm paper filter disks saturated with 250 μl of 1% sucrose containing 2 mM paraquat or 1% sucrose, 2 mM paraquat and the tested compound. The vials will be stored at 25° C. in the dark, and flies are enumerated after 24 h.
Three replicas for each concentration will be performed in the same day and three replicas of the assay will be performed in different days.
The experiment includes the analysis of four compound concentrations (10, 100, 250 and 1000 μM) and will evaluate 360 flies for each concentration (8 replicates×3 days with 15 flies each one). Resistance to paraquat treatment will be indicative of positive activity of the compound tested. See, FIG. 2.
MN-001 was tested at concentrations of 0.08 mM, 0.8 mM, 8 mM (DMSO).

Each structure is given as a SMILES string.

Take `Nc1nc2ccc(OC(F)(F)F)cc2s1` [riluzole]: the “survival (or survivorship) percentages after paraquat exposure” value was “increased this percentage”.

Source of the values: patent publication US20150320705A1, “METHOD OF INHIBITING OR TREATING AMYOTROPHIC LATERAL SCLEROSIS WITH PHENOXYALKYLCARBOXYLIC ACIDS” (priority 2014, published 2015).
